From ChEMBL document CHEMBL1150386 (J Med Chem, 2008)

Columns and labels:
Acetylcholinesterase [1] = molecular target: T1, Acetylcholinesterase (Homo sapiens, UniProt P22303); assay: Inhibition of human recombinant AChE
Acetylcholinesterase [2] = molecular target: T1, Acetylcholinesterase

## CC(=O)N(CCCCNc1c2c(nc3ccccc13)CCCC2)CCCSc1c2c(nc3ccccc13)CCCC2
Acetylcholinesterase [1]
  Ki: 20.9 nM
Acetylcholinesterase [2]
  Ki: 27.9 nM
